In US20240307386A1 (priority 2018, published 2024):

How the values were obtained:
[1] = biological target: NOP (Nociceptin Receptor) (Homo sapiens (Human), UniProt P41146); assay: Receptor binding, NOP
[2] = biological target: Delta opioid (Homo sapiens (Human), UniProt P41143); assay: Receptor binding, Delta opioid
[3] = biological target: Kappa opioid (Homo sapiens (Human), UniProt P41145); assay: Receptor binding, Kappa opioid; settings: @ 100 nM

`O=C1CN2c3c(cccc3[C@@H]3CN(CCCOc4ccc(F)cc4)CC[C@@H]32)N1` [Example 1, (6bR,10aS)-8-(3-(4-fluorophenoxy)propyl)-6b,7,8,9,10,10a-hexahydro-1H-pyrido[3′,4′:4,5]pyrrolo[1,2,3-de]quinoxalin-2(3H)-one] was tested, and the maximum inhibition [1] was “No inhibition”, the maximum inhibition [2] was “No inhibition” and the maximum inhibition [3] was 16% @.
